Data taken from patent US20260184748A1, “COMPOSITIONS COMPRISING OCTADECANEUROPEPTIDES (ODN) AND SYNTHETIC DERIVATIVES THEREOF AND METHODS OF USE FOR MODULATION OF FOOD INTAKE, OBESITY, BODY WEIGHT, NAUSEA, AND EMESIS” (The Trustees of the University of Pennsylvania, priority 2022, published 2026).

Protein sequences, listed by entry. Tags and fused reporters are not part of them. Lines headed by an entry give the natural chain unless they say otherwise; changes in a name come on top.
UniProt P48146: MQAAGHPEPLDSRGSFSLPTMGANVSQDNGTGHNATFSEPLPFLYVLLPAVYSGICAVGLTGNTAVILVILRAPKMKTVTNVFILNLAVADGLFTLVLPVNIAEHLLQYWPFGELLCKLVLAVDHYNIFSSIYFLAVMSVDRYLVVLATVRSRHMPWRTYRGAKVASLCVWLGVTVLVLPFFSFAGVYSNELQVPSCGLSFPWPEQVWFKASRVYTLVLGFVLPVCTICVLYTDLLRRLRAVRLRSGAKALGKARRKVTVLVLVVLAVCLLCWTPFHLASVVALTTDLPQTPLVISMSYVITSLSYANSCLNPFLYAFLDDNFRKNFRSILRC

What was measured:
Test in all cases: Arrestin agonist mode
Format in all cases: cell-based
Details in all cases: read-out: RC50 (the source's name)
NPBWR1 = target: T1, NPBWR1 (Homo sapiens, UniProt P48145)
T1 sequence (P48145 1-328): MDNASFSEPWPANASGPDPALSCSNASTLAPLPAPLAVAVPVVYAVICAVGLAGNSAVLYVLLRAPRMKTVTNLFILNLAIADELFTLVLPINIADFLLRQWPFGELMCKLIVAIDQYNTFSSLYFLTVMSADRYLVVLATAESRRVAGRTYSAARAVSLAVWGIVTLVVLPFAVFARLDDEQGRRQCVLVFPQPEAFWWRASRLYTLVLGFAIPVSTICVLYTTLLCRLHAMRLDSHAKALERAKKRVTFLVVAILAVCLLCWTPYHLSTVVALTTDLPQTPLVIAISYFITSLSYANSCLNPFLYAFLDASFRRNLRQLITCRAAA

NPBWR2 = NPBWR2 (Homo sapiens, UniProt P48146)
F2R = target: T2, F2R (Homo sapiens, UniProt P25116)
T2 sequence (P25116 22-425): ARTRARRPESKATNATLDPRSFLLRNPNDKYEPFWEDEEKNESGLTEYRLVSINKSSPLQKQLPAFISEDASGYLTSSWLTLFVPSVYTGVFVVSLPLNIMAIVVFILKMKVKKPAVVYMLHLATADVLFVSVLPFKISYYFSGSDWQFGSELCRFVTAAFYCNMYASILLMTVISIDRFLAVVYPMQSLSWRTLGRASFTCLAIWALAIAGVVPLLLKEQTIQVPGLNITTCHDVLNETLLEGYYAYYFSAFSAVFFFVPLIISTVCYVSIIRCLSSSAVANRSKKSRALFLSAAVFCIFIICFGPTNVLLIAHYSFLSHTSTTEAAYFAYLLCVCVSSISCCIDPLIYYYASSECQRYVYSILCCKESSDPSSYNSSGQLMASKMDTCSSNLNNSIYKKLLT

| EC50 (NPBWR1) [nM] | EC50 (NPBWR2) [nM] | EC50 (F2R) [nM] | SMILES |
| --- | --- | --- | --- |
| 2.17 | 3.62 |  | CSCC[C@H](NC(=O)[C@H](CC(C)C)NC(=O)[C@H](CC(C)C)NC(=O)CNC(=O)[C@H](C)NC(=O)[C@H](C)NC(=O)[C@H](CCCNC(=N)N)NC(=O)CNC(=O)[C@@H](NC(=O)[C@@H](NC(=O)[C@H](Cc1c[nH]cn1)NC(=O)[C@H](Cc1ccc(O)cc1)NC(=O)[C@H](CCCNC(=N)N)NC(=O)[C@@H]1CCCN1C(=O)[C@H](CO)NC(=O)[C@H](C)NC(=O)[C@@H](NC(=O)[C@H](Cc1c[nH]cn1)NC(=O)[C@H](CCCCN)NC(=O)[C@H](Cc1ccc(O)cc1)NC(=O)[C@@H](N)Cc1c[nH]c2ccccc12)C(C)C)[C@@H](C)O)C(C)C)C(=O)NCC(=O)N[C@@H](CC(C)C)C(=O)O |
|  |  | 14500 | CC(C)C[C@H](NC(=O)[C@H](CC(C)C)NC(=O)[C@H](Cc1ccccc1)NC(=O)[C@@H](N)[C@@H](C)O)C(=O)N[C@@H](CCCNC(=N)N)C(N)=O [TFLLR-NH2] |
